The test has as its target human LPAR1 (Homo sapiens, UniProt Q92633). Put plainly: In vitro functional assay of lysophosphatidic acid receptor 1 activity (calcium flux). Format: cell-based. The settings on record: read-out: LPAR1 IC50.
Setting [1] is: B103 cells stably expressing human LPAR1, calcium flux (Fluo-4 NW) after lysophosphatidic acid (18:1) at EC80, 100 pM to 10 μM.

Protein sequences, listed by entry. Tags and fused reporters are not part of them.
UniProt Q92633, whole entry: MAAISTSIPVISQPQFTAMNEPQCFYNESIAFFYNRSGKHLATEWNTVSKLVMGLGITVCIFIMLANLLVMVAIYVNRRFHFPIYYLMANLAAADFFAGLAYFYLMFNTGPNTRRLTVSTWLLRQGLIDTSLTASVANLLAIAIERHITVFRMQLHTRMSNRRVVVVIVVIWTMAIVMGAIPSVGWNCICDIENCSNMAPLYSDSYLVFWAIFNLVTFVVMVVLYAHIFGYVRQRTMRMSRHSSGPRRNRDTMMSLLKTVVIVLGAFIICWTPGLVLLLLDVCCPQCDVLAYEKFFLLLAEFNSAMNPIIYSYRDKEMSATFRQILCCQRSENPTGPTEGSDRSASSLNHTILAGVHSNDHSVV

The structures appear in SMILES notation. Read-outs that look alike come from different tables or passages of the source. Some results are limits rather than exact numbers.

Consider `Cc1ccc(NC(=O)N(c2ccccc2C(C)C)C2CC3(CC(C(=O)O)C3)C2)c(OC(F)F)n1` (single isomer, unassigned) [292], for which the IC50 (usually the concentration needed to halve the response being measured) under setting [1] is below 10 nM. For the molecule `Cc1ccc(NC(=O)N(c2ccccc2C(C)C)[C@H]2CC[C@@](O)(C(F)(F)C(=O)O)CC2)c(OC(F)F)n1` (relative stereo), the IC50 was in the range of 10 to 100 nM.

On to `Cc1ccc(NC(=O)N(c2ccccc2C(C)C)C2CC3(CC(C(=O)O)C3)C2)c(OC(F)F)n1` (single isomer, unassigned) [293], for which, under setting [1], the IC50 lay within 10 to 100 nM.

The record behind these values is US20250034110A1, “LPAR1 ANTAGONISTS AND USES THEREOF” (Pipeline Therapeutics, Inc., priority 2021, published 2025).
